Source: patent publication US20170157260A1, “Glycosylated Polypeptide and Drug Composition Containing said Polypeptide” (Glytech, Inc., priority 2011, published 2017)

Sequences of proteins named here, by UniProt entry; tags and fusion partners are left off. A change or cut given only in a name is not applied to a line headed by its entry.
UniProt P30874: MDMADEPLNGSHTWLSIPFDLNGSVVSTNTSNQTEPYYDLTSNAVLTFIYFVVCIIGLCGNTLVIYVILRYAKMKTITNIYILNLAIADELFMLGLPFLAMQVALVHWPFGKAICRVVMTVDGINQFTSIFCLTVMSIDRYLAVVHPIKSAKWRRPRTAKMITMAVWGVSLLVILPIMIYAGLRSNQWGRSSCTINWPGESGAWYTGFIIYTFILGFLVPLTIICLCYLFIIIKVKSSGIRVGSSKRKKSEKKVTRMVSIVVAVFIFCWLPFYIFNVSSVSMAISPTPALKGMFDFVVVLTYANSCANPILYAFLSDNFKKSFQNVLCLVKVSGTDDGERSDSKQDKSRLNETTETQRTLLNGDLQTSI
UniProt P30872: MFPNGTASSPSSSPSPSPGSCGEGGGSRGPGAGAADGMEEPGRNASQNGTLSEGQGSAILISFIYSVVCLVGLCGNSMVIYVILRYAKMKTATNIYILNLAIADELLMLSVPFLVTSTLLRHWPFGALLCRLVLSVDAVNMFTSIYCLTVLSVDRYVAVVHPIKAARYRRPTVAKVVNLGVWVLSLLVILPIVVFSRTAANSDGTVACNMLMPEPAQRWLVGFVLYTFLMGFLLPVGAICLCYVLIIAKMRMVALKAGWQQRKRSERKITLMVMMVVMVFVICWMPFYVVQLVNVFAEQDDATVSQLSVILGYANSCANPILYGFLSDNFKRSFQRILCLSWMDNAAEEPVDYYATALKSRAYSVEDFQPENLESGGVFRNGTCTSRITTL
UniProt P32745: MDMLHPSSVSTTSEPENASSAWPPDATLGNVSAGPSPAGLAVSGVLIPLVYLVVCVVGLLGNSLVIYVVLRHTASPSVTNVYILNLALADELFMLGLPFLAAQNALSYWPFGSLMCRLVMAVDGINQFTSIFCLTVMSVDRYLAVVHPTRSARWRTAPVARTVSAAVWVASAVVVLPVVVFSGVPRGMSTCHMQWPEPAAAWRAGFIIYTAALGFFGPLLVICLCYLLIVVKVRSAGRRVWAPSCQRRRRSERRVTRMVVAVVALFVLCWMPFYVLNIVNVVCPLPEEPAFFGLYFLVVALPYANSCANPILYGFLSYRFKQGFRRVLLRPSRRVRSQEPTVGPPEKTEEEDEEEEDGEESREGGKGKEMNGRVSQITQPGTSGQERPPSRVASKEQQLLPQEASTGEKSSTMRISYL
UniProt P35346: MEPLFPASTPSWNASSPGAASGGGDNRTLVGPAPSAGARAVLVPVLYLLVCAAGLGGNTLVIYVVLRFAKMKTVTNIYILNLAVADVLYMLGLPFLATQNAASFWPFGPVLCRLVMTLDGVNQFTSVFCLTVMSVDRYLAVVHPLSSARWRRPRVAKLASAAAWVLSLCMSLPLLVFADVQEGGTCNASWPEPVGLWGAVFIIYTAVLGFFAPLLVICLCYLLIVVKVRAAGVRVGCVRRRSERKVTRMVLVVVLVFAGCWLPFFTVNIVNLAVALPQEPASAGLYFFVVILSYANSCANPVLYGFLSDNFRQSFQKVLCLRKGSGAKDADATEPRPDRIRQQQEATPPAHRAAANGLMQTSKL

Assays:
SSTR2 [1] = molecular target: T1, SSTR2 (Homo sapiens, UniProt P30874)
SSTR1 [2] = molecular target: T2, SSTR1 (Homo sapiens, UniProt P30872)
SSTR3 [3] = molecular target: T3, SSTR3 (Homo sapiens, UniProt P32745)
SSTR5 [4] = molecular target: T4, SSTR5 (Homo sapiens, UniProt P35346)
SSTR2 [5] = molecular target: T1, SSTR2; assay: Competitive binding assay, SSTR2; details: Table 3B, Example 67-2, competitive binding assay; for IC50: read-out: SSTR2 IC50; for Ki: read-out: SSTR2 Ki
SSTR1 [6] = molecular target: T2, SSTR1; assay: Competitive binding assay, SSTR1; details: for IC50: read-out: SSTR1 IC50
SSTR3 [7] = molecular target: T3, SSTR3; assay: Competitive binding assay, SSTR3; details: for IC50: read-out: SSTR3 IC50
SSTR5 [8] = molecular target: T4, SSTR5; assay: Competitive binding assay, SSTR5; details: for IC50: read-out: SSTR5 IC50
[9] = Pharmacokinetics test with rats (intravenous and subcutaneous administration); details: rats; for Intravenous administration AUC / Intravenous administration C0 / Intravenous administration MRT / Intravenous administration T1/2 / Subcutaneous administration AUC / Subcutaneous administration Cmax / Subcutaneous administration MRT / Subcutaneous administration T1/2 / BA: Tables 5B-5F (Examples 73-84); for BA: subcutaneous vs intravenous
[10] = Table 3B, Example 67-2, competitive binding assay
[11] = read-out: SSTR1 Ki, Table 3B, Example 67-2, competitive binding assay
[12] = read-out: SSTR5 Ki, Table 3B, Example 67-2, competitive binding assay
[13] = read-out: SSTR3 Ki, Table 3B, Example 67-2, competitive binding assay

Substance	IC50 (SSTR2 [5]) [nM]	Ki (SSTR2 [5]) [nM]	IC50 (SSTR1 [6]; [10]) [nM]	Ki (SSTR1 [6]; [11]) [nM]	IC50 (SSTR3 [7]; [10]) [nM]	IC50 (SSTR5 [8]; [10]) [nM]	Ki (SSTR5 [8]; [12]) [nM]	Ki (SSTR3 [7]; [13]) [nM]	further results
30C(disialo)-SRIF28 [Example 14]	–	–	–	–	–	–	–	–	IC50 (SSTR2 [1]): 0.912 nM; Ki (SSTR2 [1]): 0.275 nM; IC50 (SSTR1 [2]): 4.21 nM; Ki (SSTR1 [2]): 3.48 nM; IC50 (SSTR3 [3]): 6.91 nM; Ki (SSTR3 [3]): 2.36 nM
A9C(disialo)-D-Trp22-SRIF28 [Example 16]	–	–	–	–	–	–	–	–	IC50 (SSTR2 [1]): 0.0396 nM; Ki (SSTR2 [1]): 0.021 nM; IC50 (SSTR1 [2]): 6.92 nM; Ki (SSTR1 [2]): 6.73 nM; IC50 (SSTR3 [3]): 0.256 nM; Ki (SSTR3 [3]): 0.0876 nM; IC50 (SSTR5 [4]): 0.194 nM; Ki (SSTR5 [4]): 0.11 nM
A15C(disialo)-SRIF28 [Example 7]	0.938	0.498	11.4	9.43	3.49	3.84	2.17	–	–
Azido-S1C(disialo)-SRIF28 [Example 46]	1.29	0.69	8.82	–	3.17	0.84	0.47	1.09	–
Biotin-PEG linker-S1C(disialo)-SRIF28 [Example 45]	1.86	1.04	9.41	7.39	3.41	2	1.13	–	–
Biotin-S1C(disialo)-SRIF28 [Example 44]	1.68	0.89	–	9.05	–	2.42	1.37	1	–
C(disialo(aminoethylamide))/S1C(disialo)-SRIF28 [Example 65]	–	–	–	–	–	–	–	–	Intravenous administration AUC [9]: 3742 nM·min; Intravenous administration C0 [9]: 518 nM; Intravenous administration MRT [9]: 20.5 min; Intravenous administration T1/2 [9]: 22.5 min; Subcutaneous administration AUC [9]: 1289 nM·min; Subcutaneous administration Cmax [9]: 16.2 nM; Subcutaneous administration MRT [9]: 64.7 min; Subcutaneous administration T1/2 [9]: 42.3 min; BA [9]: 34%
C(disialo)-SRIF28 [Example 34]	0.478	0.255	5.57	4.61	2.55	2.62	1.48	0.87	–
E12C(disialo)-SRIF28 [Example 4]	–	–	–	–	–	–	–	–	BA [9]: 27%; IC50 (SSTR1 [2]): 1.7 nM; Ki (SSTR1 [2]): 1.4 nM; IC50 (SSTR3 [3]): 0.362 nM; Ki (SSTR3 [3]): 0.124 nM; IC50 (SSTR5 [4]): 0.376 nM; Ki (SSTR5 [4]): 0.212 nM
F25C(disialo)-SRIF28 [Example 38]	> 1000	> 531	> 1000	> 828	> 1000	53	–	> 342	Ki (SSTR5 [8]; read-out: Ki value against SSTR5, Example 67-2 (text on Table 3B)): 33 nM
G16C(disialo)-SRIF28 [Example 8]	1.22	0.646	17.4	14.4	3.12	5.67	3.21	–	–
K18C(disialo)-SRIF28 [Example 9]	–	6.51	45.4	37.6	14.7	160	95	5.03	–
R11C(disialo)-SRIF28 [Example 35]	1.38	0.735	22	18.2	6.34	3.65	–	2.17	–
S1-2C(disialo(Bn))-SRIF28 [Example 62]	–	0.44	–	4.97	2.58	–	1.47	0.88	Intravenous administration AUC [9]: 5525 nM·min; Intravenous administration C0 [9]: 807 nM; Intravenous administration MRT [9]: 20.7 min; Intravenous administration T1/2 [9]: 25.6 min; Subcutaneous administration AUC [9]: 1843 nM·min; Subcutaneous administration Cmax [9]: 21.5 nM; Subcutaneous administration MRT [9]: 59.4 min; Subcutaneous administration T1/2 [9]: 33.9 min; BA [9]: 33%
S1-2C(disialo(amide))-SRIF28 [Example 61]	–	0.44	6.92	5.73	2.06	2.67	1.51	0.71	Intravenous administration AUC [9]: 5268 nM·min; Intravenous administration C0 [9]: 737 nM; Intravenous administration MRT [9]: 20.5 min; Intravenous administration T1/2 [9]: 23.8 min; Subcutaneous administration AUC [9]: 1297 nM·min; Subcutaneous administration Cmax [9]: 16.3 nM; Subcutaneous administration MRT [9]: 55.8 min; Subcutaneous administration T1/2 [9]: 33.1 min; BA [9]: 25%
S1-4C(disialo)-SRIF28 [Example 66]	3.76	2	–	100	10	10	5.82	3.43	extension of t1/2 compared to the non-glycosylated form (SRIF28 or SRIF14) ([9]; administered intravenously): 48 folds; increase of AUC compared to the non-glycosylated form (SRIF28 or SRIF14) ([9]; administered intravenously): 15 folds; Intravenous administration AUC [9]: 7070 nM·min; Intravenous administration C0 [9]: 1007 nM; Intravenous administration MRT [9]: 25.2 min; Intravenous administration T1/2 [9]: 63.5 min; Subcutaneous administration AUC [9]: 4554 nM·min; Subcutaneous administration Cmax [9]: 22.0 nM; Subcutaneous administration MRT [9]: 172 min; Subcutaneous administration T1/2 [9]: 119 min; BA [9]: 64%
S1C(disialo (hexadecylamide))-SRIF28 [Example 60]	1.04	0.55	5.53	4.57	–	37	21	3.75	–
S1C(disialo)-F25Y-SRIF28 [Example 41]	0.31	0.16	1.77	1.46	0.48	1.09	0.62	0.16	–
S1N(disialo).N19C(diMan)-SRIF28 [Example 64]	5.65	3	35	29	3.9	8.53	4.82	1.33	–
S27C(disialo)-SRIF28 [Example 39]	0.326	0.17	28.4	23.5	6.77	4.94	2.8	2.31	–
T26C(disialo)-SRIF28 [Example 12]	310	160	21.6	–	21.7	480	230	–	Ki (SSTR1 [6]; read-out: Ki value against SSTR1, Example 67-2 (text on Table 3B)): 17.9 nM; Ki (SSTR3 [7]; read-out: Ki value against SSTR3, Example 67-2 (text on Table 3B)): 7.44 nM

Read-outs that look alike come from different tables or passages of the source.
